Experimental data from patent US8017630B2 (priority 2004, dated 2011).

Sequences of proteins named here, by UniProt entry; tags and fusion partners are left off.
UniProt P35372, whole entry: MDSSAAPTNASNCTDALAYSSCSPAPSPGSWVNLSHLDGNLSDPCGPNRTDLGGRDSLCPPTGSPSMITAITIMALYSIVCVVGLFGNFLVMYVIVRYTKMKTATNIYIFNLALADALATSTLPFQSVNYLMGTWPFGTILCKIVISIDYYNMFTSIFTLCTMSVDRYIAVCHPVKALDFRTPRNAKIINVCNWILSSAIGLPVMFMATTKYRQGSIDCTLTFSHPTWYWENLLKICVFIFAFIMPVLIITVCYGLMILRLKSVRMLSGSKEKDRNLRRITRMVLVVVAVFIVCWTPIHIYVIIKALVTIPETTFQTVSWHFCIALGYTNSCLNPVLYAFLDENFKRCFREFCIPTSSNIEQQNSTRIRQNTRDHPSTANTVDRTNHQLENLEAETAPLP
UniProt P41146, whole entry: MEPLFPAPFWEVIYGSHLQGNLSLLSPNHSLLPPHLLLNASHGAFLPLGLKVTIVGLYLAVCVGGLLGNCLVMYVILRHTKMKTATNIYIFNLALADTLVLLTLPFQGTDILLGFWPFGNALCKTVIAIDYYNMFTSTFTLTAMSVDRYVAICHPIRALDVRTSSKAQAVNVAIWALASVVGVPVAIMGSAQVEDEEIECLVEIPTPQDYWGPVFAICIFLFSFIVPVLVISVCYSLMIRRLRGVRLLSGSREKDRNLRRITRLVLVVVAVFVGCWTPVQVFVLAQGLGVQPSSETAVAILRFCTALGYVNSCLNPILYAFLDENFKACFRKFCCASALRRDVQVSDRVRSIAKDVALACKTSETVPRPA

Key:
human μ-opiate receptor = human μ-opiate receptor (Homo sapiens, UniProt P35372); assay: μ-opiate receptor binding assay with [3H]-naloxone; settings: for Ki: read-out: ORμNal Ki, Ki from IC50 by Cheng-Prusoff, [3H]-naloxone, CHO-K1 membranes; for ORμNal % 1 μm: % inhibition of specific [3H]-naloxone binding at 1 μmol/l
ORL1 receptor = ORL1 receptor (Homo sapiens, UniProt P41146); assay: ORL1 receptor binding assay with 3H-nociceptin/orphanin FQ; settings: % inhibition at c=1 μM; membranes from recombinant CHO-ORL1 cells
mice = assay: Tail flick test in mice (analgesia); settings: 10 mg/kg intravenous; % of maximum possible antinociceptive effect

Structure (SMILES)	Ki (human μ-opiate receptor) [nM]	ORμNal % 1 μm (human μ-opiate receptor) [%]	ORL1% 1 μM (ORL1 receptor) [%]	TFMiv % (10 mg/kg) (mice)
CN(C)C1(c2ccccc2)CCC(CC(=O)NCCc2c[nH]c3ccccc23)CC1 (stereo not drawn)	0.3			
CC(Cc1c[nH]c2ccccc12)NC(=O)CC1CCC(c2ccccc2)(N(C)C)CC1 (stereo not drawn)	0.9			
CC(Cc1c[nH]c2ccccc12)NC(=O)CC1CCC(c2ccccc2)(N(C)C)CC1.Cl (stereo not drawn)		103	98.00	
CN(C)C1(c2ccccc2)CCC(CC(=O)NCCCCc2ccccc2)CC1.Cl (stereo not drawn)		101	95.00	
CN(C)C1(c2ccccc2)CCC(CC(=O)NCCc2c[nH]c3ccccc23)CC1.Cl (stereo not drawn)		91.5	98.00	90 (10 mg/kg) %
